Test results taken from US20070009621A1, “Correcting systemic androgen levels using Eurycoma longifolia” (priority 2005, published 2007).

Tests used:
CYP17 gene = test: Real Time RT-PCR gene expression analysis in rat Leydig cells; assay type: cell-based; conditions: normalized to 5sRNA housekeeping gene and to control, mean of triplicate incubations ±SD
Text: Gene expression analysis using Real Time Reverse Transcription Polymerase Chain Reaction (RT-PCR) is based on detection and quantitation of a fluorescent signal, which increases in direct proportion to the amount of PCR product n a reaction. In this study, the signal used is a double-stranded DNA specific fluoresce dye (SYBR Green 1). Real Time RT-PCR allows researcher to examine the relative level of gene expression and variation between samples. The objective of this analysis is to observe the effect of Eurycoma longifolia towards gene expression level. As for this study, the genes of interest are the genes involved in testosterone/androgen biosynthesis pathways and also spermatogenesis.
Prior to Real Time RT-PCR, rat Leydig cells were given the same treatment and incubation as in the EIA experiment. At the end of the incubation, culture media were removed and RNA was extracted from the cells. […]
The housekeeping gene acts as an endogenous control in the assay to correct any sample to sample variation or errors in sample quantitation. […]
Relative values were obtained by dividing the normalized value of each treated samples with the normalized control value for each corresponding group. […] All values were statistically evaluated using SPSS version 11.0; differences were significant at p<0.01 […]

rat Leydig cells = test: Testosterone concentration in rat Leydig cells by ELISA; assay type: cell-based; conditions: incubated an hour, Eurycoma longifolia 75 ug/ml, Hcg −0.05 IU/ml, Lac 10 ul/ml
Method: Eurycoma longifolia treatment on testosterone concentration in rat Leydig Cells, as measured by in Enzyme Linked Immuno-Sorbent Assay (ELISA) Analysis. Rat Leydig cells were incubated with either Hcg, Lac or Eurycoma longifolia. After incubation, the concentration of testosterone was measured. Five×10 4 cells/100 ul of rat leydig cells were used. 75 ug/ml of Eurycoma longifolia were added into cell cultures medium. Cells were treated with the samples and controls and incubated for an hour with 5% CO2 at 37 C. The cells were then assayed by a standard immunology assay procedure, for the determination of testosterone concentration.

In the case of “Hcg: positive control (hCG) in Leydig cell and CYP17 tests”, the “Relative Value for CYP17 Gene” value (CYP17 gene) is reported as 1.57 ± 0.282, the “Testosterone Concentration” value (rat Leydig cells; rat Leydig cells 5×10^4 cells/100 ul, 5% CO2 at 37 C) is reported as 13.14 ± 2.61 pg/mL and the “% increase (testosterone concentration)” value (rat Leydig cells; versus Control, rat Leydig cells) is reported as 47.27%.
